According to PubChem BioAssay AID624297 (National Center for Advancing Translational Sciences (NCATS), 2012):
Hit rate of the full screen: of about 340,000 compounds, about 6,200 (1.8%) were called active. Only results without a clear call are listed here; the source files them as inconclusive. The call rests on the fitted dose curve; in most records, active means well fitted activation curve with a large enough effect; inconclusive means small, poorly fitted or top-dose-only effect; inactive means no such curve, though single readings can be large or run the other way.
Potency means the concentration at half of the fitted maximal effect.

Test: A quantitative high throughput screen for small molecules that induce DNA re-replication in SW480 colon adenocarcinoma cells. Further: nearly all actives have a fitted effect of over 55% in size.
Conditions: Hoechst DNA content imaging, 48 h
With `O=[N+]([O-])c1cc([N+](=O)[O-])c(CCNc2ccccc2)c([N+](=O)[O-])c1` the Potency was inconclusive: 18.4 µM.
For `CCc1nc2c(n1)c1c(non1O)c1c2no[n+]1[O-]`, the Potency was inconclusive: 20.6 µM.
For `Cc1ccc(NP(=O)(Oc2ccccc2)Oc2ccccc2)nc1`, the Potency was inconclusive: 0.731 µM.
With `O=P(Nc1ccccn1)(c1ccc(Br)cc1)c1ccc(Br)cc1` the Potency was inconclusive: 32.6 µM.
For `O=c1c2cc([N+](=O)[O-])ccc2[nH]c2c([N+](=O)[O-])cc([N+](=O)[O-])cc12`, the Potency was inconclusive: 18.4 µM.
With `O=[As](O)(c1cccc(O)c1)c1cccc(O)c1` the Potency was inconclusive: 29.1 µM.
For `Cc1ccc(NCCc2c([N+](=O)[O-])cc([N+](=O)[O-])cc2[N+](=O)[O-])cc1`, the Potency was inconclusive: 0.058 µM.
For `CS(=O)(=O)c1cc([N+](=O)[O-])c2no[n+]([O-])c2c1`, the Potency was inconclusive: 29.1 µM.
In the case of `CCOP1(=S)c2c(C)nn(CCC#N)c2N=C(c2ccccc2F)N1C` (stereo not given), the Potency is reported as inconclusive: 29.1 µM.
For `CN(C)C(=O)c1cc([N+](=O)[O-])cc2c1-c1c(cc([N+](=O)[O-])cc1[N+](=O)[O-])C2=O`, the Potency was inconclusive: 5.17 µM.
In the case of `CN(CCCl)Cc1cc(Cl)c(NC2=NCCN2)c(Cl)c1`, the Potency is reported as inconclusive: 2 µM.
In the case of `CCOC(=O)c1ccc(NC(=O)C(C)(CCl)SC)cc1` (stereo not given), the Potency is reported as inconclusive: 4.11 µM.
With `Cc1ccc2nc3c(c(C)c2c1)CC(C(Cl)Cl)S3` (stereo not given) the Potency was inconclusive: 25.9 µM.
With `O=[N+]([O-])c1cc([N+](=O)[O-])c(-c2ccn[nH]2)s1` the Potency was inconclusive: 29.1 µM.
In the case of `Cc1c2c(nc3ccccc13)SC(C(Cl)Cl)C2` (stereo not given), the Potency is reported as inconclusive: 4.61 µM.
